Target: Adenosine receptor A2a (Homo sapiens, UniProt P29274)
Settings: CHO

KiL [nM] | Structure (SMILES)
23 | COc1cccc(CNc2nc(N)c3nc(-c4ccco4)sc3n2)c1
7.16 | COc1ccccc1CNc1nc(N)c2nc(-c3ccco3)sc2n1
